High-throughput results from PubChem BioAssay.
An excerpt weighted towards active compounds, which were near 2.8% of everything screened.
C2C12 statin: suppressors of simvastatin-induced myotoxicity in C2C12 myotubes. rescue of ATP level, % at 7.49 µM. ATP luminescence, 48 h; scaled: DMSO 0, geranylgeraniol control 100. 330,000 tested, 0.78% active;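 active = mean ATP rescue above about 67%, or every replicate alone reaching that limit, limit read from the data, passing the limit was not always enough; inconclusive = no clear call, values can overlap the other calls; inactive = mean under the limit and some replicate under it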;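 note: myotubes were challenged with 10 µM simvastatin during compound exposure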
PglD DTNB: blocks C. jejuni PglD acetyltransferase activity; purified PglD enzyme, DTNB colorimetric CoA detection; inhibition, % at 12.5 µM; 360,000 tested, 0.098% active; AID 602405; in the data active = inhibition above about 16%, passing the limit was not always enough; inconclusive = no clear call, values can overlap the other calls
esBAF inh: inhibitors of esBAF chromatin remodeling in mouse ES cells; Bmi1-luciferase knock-in reporter, 24 h; 100% = twice the neutral-well signal; reporter increase, % at 12.5 µM; 350,000 tested, 2% active; AID 602393; in the data active = activation above about 40%; inconclusive = no clear call, values can overlap the other calls;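 note: 0% = median of the plate's neutral control wells and 100% = double that signal; a rise in the Bmi1 reporter signal indicates esBAF inhibition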
E-sel inducer: E-selectin induction on HUVECs; HUVEC E-selectin immunofluorescence imaging; normalized: neutral wells 0, TNF-alpha wells 100; activation, % at 7.58 µM; 260,000 tested, 0.37% active;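 active = mean E-selectin-positive cell signal at least 10% of the positive control, reached in at least 60% of replicates, without over 20% cell loss; inconclusive = no rule given, readout overlaps actives, possibly toxicity-flagged; inactive = the rest, including those meeting only one limit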
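Assay system: HUVEC primary endothelial cells. Input: 3,000 HUVEC seeded per well. Doses: one compound dose added by pin transfer. Read-out basis: % PE-positive cells. Benchmarks: TNF-alpha high, DMSO low. Detection: immunofluorescence imaging. Buffer or medium: EGM-2, gelatin.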
Yeast UUG start: alters start codon recognition fidelity in yeast | S. cerevisiae UUG-firefly luciferase reporter, luminescence/redox ratio | activity score, % at 18.7 µM | hit rate 0.13% among 350,000 | AID 602363;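 active means replicate mean at a twofold rise or more, about +100% in these data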;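 further: firefly luciferase made from a UUG start codon reports start codon fidelity; reporter light over untreated wells divided by growth signal over untreated wells; some hits fall short of that in this replicate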
PGC1a acetyl inh: modulators of PGC1a acetylation; U2OS PGC1a acetylation, AlphaScreen anti-acetyl-lysine; with virally co-expressed GCN5 acetyltransferase; inhibition, % at 15.6 µM; 350,000 tested, 0.17% active; AID 651687;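 active = every replicate shows inhibition of at least 40%; inconclusive = mean inhibition at least 40% but some replicate below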;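 note: 0% = neutral control wells and 100% = positive control wells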
esBAF Ring1 qPCR: confirmation of esBAF inhibitors: Ring1 de-repression in mouse ESCs | fold change at 33 µM | 550 tested, under 10 active | mouse ESC E14, Ring1 mRNA RT-qPCR fold change | AID 743176 | shares compounds with esBAF inh;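 active = Ring1 gene expression raised more than 2-fold over untreated cells in both replicates at either tested dose; inconclusive = only one replicate above 2-fold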;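 note: Ring1 transcript normalised to actin housekeeping signal by TaqMan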
Fgf4 repress: represses Fgf4 in mouse ESCs, confirming esBAF inhibition; mouse ESC E14, Fgf4 mRNA qPCR fold change; hits give low values; 550 tested, 4% active; shares compounds with esBAF inh; Fgf4 expression fold change at 33 µM; AID 743177;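 active = Fgf4 expression under 0.8 fold of control in both repeat measurements at one or both tested doses; inconclusive = under 0.8 fold in just a single repeat measurement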;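 note: Fgf4 transcript normalised to actin in duplex TaqMan qPCR; cells exposed to compound for 24 h before lysis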
Bmi1 derepress: esBAF inhibition confirmed by Bmi1 de-repression. shares compounds with esBAF inh. mouse ESE14 ES cells, Bmi1 mRNA qPCR fold; hits give high values. fold change at 33 µM. 550 tested, under 10 active;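 active = Bmi1 expression fold change above 6 at either tested concentration, seen in replicate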;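 note: higher fold means more Bmi1 de-repression and stronger esBAF inhibition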
A549 tox SP: kills or reduces viability of A549 cells; shares compounds with esBAF inh; A549 cytotoxicity, plate reader; cell viability change % (negative = cytotoxic), % at 25 µM, hits read low; 550 tested, under 10 active; AID 743188; call rule not given here
HepG2 cytotox SP: HepG2 cell cytotoxicity at single point; activity change, negative = inhibition, % at 25 µM; 550 tested, 4% active; plate reader; hits give low values; shares compounds with esBAF inh; in the data active = activity change below about -50%
HEK293 cytotox SP: HEK293 cell cytotoxicity at single point; shares compounds with esBAF inh; plate reader; activity change, negative = inhibition, % at 25 µM, hits read low; 550 tested, 3% active; in the data active = activity change below about -38%, passing the limit was not always enough
* hit, by the source's call; ? = inconclusive; / = no result given.

| nr | compound | C2C12 statin | PglD DTNB | esBAF inh | E-sel inducer | Yeast UUG start | PGC1a acetyl inh | esBAF Ring1 qPCR | Fgf4 repress | Bmi1 derepress | A549 tox SP | HepG2 cytotox SP | HEK293 cytotox SP |
| --- | --- | --- | --- | --- | --- | --- | --- | --- | --- | --- | --- | --- | --- |
| 1 | Cc1cc(=O)oc2cc(NC(=O)c3cccc(F)c3)ccc12 | 2.8 | -3.4 | 68.3* | 0.1 | -15.1 | -0.5 | 1.21 | 0.919 | 0.948 | -8.2 | -13.1 | -0.1 |
| 2 | C[C@@H]1CN([C@H](C)CO)C(=O)c2cccc(NC(=O)Nc3ccc4c(c3)OCO4)c2O[C@@H]1CN(C)S(=O)(=O)c1ccc(Cl)cc1 | ? | -0.2 | 15.7 | 0.5 | / | -10.6 | / | / | / | / | / | / |
| 3 | O=S(=O)(N[C@H]1CC[C@H](CCn2cc(C3(O)CCCC3)nn2)O[C@H]1CO)c1ccccc1 | 7.7 | -2.1 | 8.8 | -1.9 | -8.2 | 5.0 | / | / | / | / | / | / |
| 4 | CCn1c(COc2ccccc2C)nc2ccccc21 | 8.0 | -3.0 | 64.5* | / | -23.2 | 6.4 | 1.14 | 0.938 | 1.76 | -7.4 | 1.4 | -13.9 |
| 5 | CCn1c(COc2ccccc2OC)nc2ccccc21 | -0.6 | 2.8 | ? | 0.4 | -18.0 | / | / | / | / | / | / | / |
| 6 | Cc1cccc(C)c1OCc1nc2ccccc2[nH]1 | / | / | / | -1.4 | / | / | / | / | / | / | / | / |
| 7 | Cc1ccc(C)c(OCc2nc3ccccc3[nH]2)c1 | -0.5 | 8.9 | 66.3* | / | -18.2 | 6.4 | 1.36 | 1.02 | 1.57 | -1.0 | -33.5 | -12.2 |
| 8 | O=C(O)c1ccc2c(c1)C(=O)N(CCc1c[nH]c3ccccc13)C2=O | 4.5 | 7.0 | 46.6* | -0.1 | -6.2 | 23.9 | 1.2 | 0.982 | 1.52 | -1.9 | -3.5 | 2.6 |
| 9 | Cc1ccc(OCn2c(=O)sc3ccccc32)cc1 | 0.7 | -0.6 | 66.1* | / | -2.1 | 4.0 | 1.12 | 1.23 | 1.43 | -10.3 | -10.6 | -15.6 |
| 10 | COc1cccc(NC(=O)C(=O)NCC2CCCN2S(=O)(=O)c2cccs2)c1 (stereo not drawn) | -4.1 | -0.6 | 62.0* | -0.1 | -2.0 | / | 0.973 | 0.931 | 1.25 | -13.9 | -23.4 | -18.1 |

Exported screen by screen: entries from further up
7	Cc1ccc(C)c(OCc2nc3ccccc3[nH]2)c1
8	O=C(O)c1ccc2c(c1)C(=O)N(CCc1c[nH]c3ccccc13)C2=O
9	Cc1ccc(OCn2c(=O)sc3ccccc32)cc1
assay / entry | 7 | 8 | 9
C2C12 statin | -0.5 | 4.5 | 0.7
PglD DTNB | 8.9 | 7.0 | -0.6
esBAF inh | 66.3* | 46.6* | 66.1*
E-sel inducer | / | -0.1 | /
Yeast UUG start | -18.2 | -6.2 | -2.1
PGC1a acetyl inh | 6.4 | 23.9 | 4.0
esBAF Ring1 qPCR | 1.36 | 1.2 | 1.12
Fgf4 repress | 1.02 | 0.982 | 1.23
Bmi1 derepress | 1.57 | 1.52 | 1.43
A549 tox SP | -1.0 | -1.9 | -10.3
HepG2 cytotox SP | -33.5 | -3.5 | -10.6
HEK293 cytotox SP | -12.2 | 2.6 | -15.6

The results go on:
Values run as follows: C2C12 statin | PglD DTNB | esBAF inh | E-sel inducer | Yeast UUG start | PGC1a acetyl inh | esBAF Ring1 qPCR | Fgf4 repress | Bmi1 derepress | A549 tox SP | HepG2 cytotox SP | HEK293 cytotox SP
11	COc1cccc(NC(=O)C(=O)NCCC2CCCCN2S(=O)(=O)c2cccs2)c1 (stereo not drawn)
    8.7 | / | 60.4* | 0.0 | / | / | 0.811 | 0.936 | 1.35 | -5.5 | 26.8 | -7.6
12	COc1ccc(Cl)cc1C(=O)NNC(=O)c1cccs1
    3.6 | 0.4 | 54.6* | / | -1.3 | -9.0 | 1.33 | 0.956 | 1.42 | -3.2 | -35.4 | -14.8
13	O=C(Nc1cccc(Cl)c1Cl)c1ccc(-c2ccccc2)cc1
    -11.5 | / | 74.3* | / | / | -8.4 | 1.09 | 0.954 | 1.7 | 3.5 | 18.8 | 9.8
14	O=C(Nc1ccccc1Cl)c1ccccc1
    / | / | / | -2.1 | / | 3.4 | / | / | / | / | / | /
15	Cc1cc(C)c2c(CN(C)Cc3ccccc3)cc(=O)oc2c1
    4.9 | 6.8 | 62.5* | -0.2 | -1.2 | -5.0 | 1.19 | ? | 1.5 | -10.9 | -7.2 | -52.8*
16	O=C(Cc1ccccc1)Nc1ccc2c(c1)OC1(CCCC1)O2
    -4.0 | -0.5 | 74.5* | / | -9.9 | -6.1 | 1.17 | 0.858 | 1.62 | -8.7 | -30.6 | -13.4
17	CCCC(=O)Nc1ccc2c(c1)c1ccccc1n2CC
    / | / | / | 1.6 | / | / | / | / | / | / | / | /
18	CCn1c2ccccc2c2cc(NC(=O)N3CCCCC3)ccc21
    0.7 | -7.8 | 96.4* | 0.7 | 12.2 | 4.6 | 1.11 | 0.938 | 1.87 | 6.6 | 7.3 | -1.4
19	O=C(CC(F)(F)F)N1C[C@H]2[C@@H](c3ccccc31)[C@@H](CO)N2C(=O)Cc1ccccc1
    -25.0 | 1.4 | -0.2 | -0.4 | 15.5 | 8.8 | / | / | / | / | / | /
20	Oc1ccccc1/C=N/N1CCN(c2ccccn2)CC1
    -16.3 | / | 78.4* | 1.8 | / | -9.6 | 1.07 | 1.08 | 1.35 | -17.6 | -9.0 | -19.5
